scFv variants of Ab-91 (heavy chain) against a SARS-CoV-2 spike peptide

From the AlphaSeq antibody data of Engelhart et al. 2022 (doi:10.1038/s41597-022-01779-4), copy in the FLAb collection.

Target peptide (SARS-CoV-2 spike, HR2 region): PDVDLGDISGINAS

Each scFv is VL, a (GGGGS)3 linker, VH, as in the parent Ab-91, and differs from it in the CDRs of the heavy chain only.
VL: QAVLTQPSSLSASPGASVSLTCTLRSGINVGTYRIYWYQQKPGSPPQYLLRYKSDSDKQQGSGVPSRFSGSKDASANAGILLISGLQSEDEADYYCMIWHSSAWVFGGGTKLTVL
VH: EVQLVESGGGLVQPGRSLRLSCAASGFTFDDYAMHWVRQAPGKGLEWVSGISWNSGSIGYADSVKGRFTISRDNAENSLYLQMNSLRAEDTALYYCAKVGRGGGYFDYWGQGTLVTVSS

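Variants in AAYL51 differ from the parent at up to three CDR positions; double and triple changes were sampled at random. Affinity was read by AlphaSeq, a pooled yeast mating assay with surface-displayed partners. Binding brings cells together so that they mate, and sequencing counts the barcode pairs among the diploids. The ratio of observed to expected reads was calibrated, replicate by replicate, on BCL2-family standards whose Kd was known from biolayer interferometry. Mating was done three times.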

Substitutions are numbered in sequence along the VH above, starting at 1 (not Kabat). This list gathers variants with a substitution at R101 (VH, numbered from residue 1). Numbers give log10(Kd / nM), so 0 is 1 nM and 3 is 1 µM. Smaller is tighter. A mean of the replicates is given; it leaves out those without a signal. "nd" marks a missing value. The strain was present, yet no cells mated with the target were sequenced in any replicate, which points to weak or no binding. Background: pairings of library AAYL51 with three empty control strains gave a value in 21% of cases (median 4.54, 5th percentile 3.26). Values in that range, when seen in few replicates, are hard to tell from nonspecific mating.

The variant F29S/N54I/R101P showed nd (0 of 3 replicates). The variant R101W showed 3.97 (3 of 3 replicates). The variant A61W/R101V/Y105D showed 3.30 (3 of 3 replicates). For R101L/G102V/G103T, the assay gave 6.11 (1 of 3 replicates). The variant Y32D/K65C/R101N showed 2.77 (2 of 3 replicates). With A61Q/R101C/G102V the result was 1.07 (3 of 3 replicates). For R101H/D107I, the assay gave 4.78 (2 of 3 replicates).

The variant S52V/R101L/F106N showed 4.85 (1 of 3 replicates). For G100M/R101P/G103W, the assay gave 4.35 (2 of 3 replicates). The variant S52K/W53R/R101T showed nd (0 of 3 replicates). The variant K65E/R101N showed nd (0 of 3 replicates). With A33G/R101F/G103K the result was 5.53 (1 of 3 replicates). The variant F29K/M34E/R101M gave nd (0 of 3 replicates). The variant M34Q/W53H/R101Y gave nd (0 of 3 replicates).

With R101A/D107Y the result was nd (0 of 3 replicates). For M34V/I58W/R101G, the assay gave 3.52 (2 of 3 replicates). The variant D31L/S63E/R101S showed 4.73 (2 of 3 replicates). For Y32E/A61S/R101M, the assay gave nd (0 of 3 replicates). The variant F27W/R101T/G103M gave nd (0 of 3 replicates). With T28C/S57E/R101P the result was nd (0 of 3 replicates). The variant R101M gave 1.79 (3 of 3 replicates).

With F27P/R101N/Y105S the result was nd (0 of 3 replicates). For W53V/G100V/R101K, the assay gave 1.58 (3 of 3 replicates). For Y32T/R101Y, the assay gave 4.81 (3 of 3 replicates). For W53P/S57A/R101G, the assay gave 0.75 (3 of 3 replicates). The variant Y60C/R101M/G103S showed nd (0 of 3 replicates). For Y60E/R101I, the assay gave nd (0 of 3 replicates). The variant I58A/R101M/F106Y showed nd (0 of 3 replicates).

The variant M34D/S63L/R101P showed 5.29 (1 of 3 replicates). For F29D/V99M/R101H, the assay gave 4.53 (2 of 3 replicates). The variant V64R/K65I/R101V gave 3.13 (3 of 3 replicates). The variant V99C/R101E/F106C gave nd (0 of 3 replicates). With A61W/R101E/G103K the result was nd (0 of 3 replicates). The variant R101S/G102M gave 0.25 (3 of 3 replicates). The variant R101A/G104H gave 4.72 (1 of 3 replicates).

The variant H35Q/G56K/R101S gave 2.35 (1 of 3 replicates). The variant D31C/Y32V/R101V showed 1.48 (3 of 3 replicates). With R101Q the result was 1.51 (3 of 3 replicates). For N54V/G59D/R101E, the assay gave nd (0 of 3 replicates). With V99Y/R101S/G103F the result was 5.50 (3 of 3 replicates). The variant S55G/R101E showed 4.10 (1 of 3 replicates). With Y60I/R101T/Y108V the result was 3.12 (3 of 3 replicates).

For S55D/S57H/R101M, the assay gave 3.94 (1 of 3 replicates). With G26Q/S52L/R101H the result was nd (0 of 3 replicates). With M34G/V99Q/R101G the result was nd (0 of 3 replicates). For S57V/R101N, the assay gave nd (0 of 3 replicates). The variant I51P/R101C/Y108V showed nd (0 of 3 replicates). With W53K/R101V the result was 3.28 (1 of 3 replicates). With F27R/A33E/R101H the result was 4.11 (2 of 3 replicates).